# Binding of CDR-mutated scFvs to a peptide of the spike HR2 region

Reference: Engelhart et al. 2022, doi:10.1038/s41597-022-01779-4. File: FLAb, binding data.

All variants were tested on one target, the spike HR2 peptide PDVDLGDISGINAS (SARS-CoV-2).

Ab-14 is the parent antibody, in scFv form: VH, then a 15-residue (Gly4Ser)3 linker, then VL. The heavy chain is unchanged in all variants.
VH: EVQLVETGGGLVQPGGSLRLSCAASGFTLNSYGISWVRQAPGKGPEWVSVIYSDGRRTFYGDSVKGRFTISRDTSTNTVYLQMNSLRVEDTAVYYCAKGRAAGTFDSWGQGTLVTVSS
VL: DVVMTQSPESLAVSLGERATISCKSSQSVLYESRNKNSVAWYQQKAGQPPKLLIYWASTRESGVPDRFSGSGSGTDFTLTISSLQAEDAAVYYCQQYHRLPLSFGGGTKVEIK

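Phage display of a naive human antibody library on the peptide gave the parent. AAYL50 was designed without a model: most single CDR substitutions and a random sample of double and triple ones. The scFvs were displayed on barcoded MATa yeast, the peptide on MATalpha yeast. The frequency of each diploid, read from paired DNA barcodes, reflects how well the two displayed proteins bind. Each replicate has its own calibration line, from reference interactions of the BCL2 family. There are three technical replicates.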

Changes read parent residue, position, new residue, counted from the first residue of the VL shown. This list gathers variants with a substitution at A57 (VL, numbered from residue 1). Values are log10 of the apparent Kd in nM; lower means stronger binding. Replicates are averaged; those with no signal do not enter the mean. Where no diploid with the target was found in that replicate, the entry reads "nd": below detection, most likely a poor binder, though not proof of it.

The variant S26Q S33P A57I gave 2.09, nd, 1.49 (mean 1.79; controls 0 of 9).
The variant A57C H98Q gave 2.86, 2.45, 4.73 (mean 3.35; controls 0 of 9).
The variant V29W A57R R60M gave nd, nd, nd (controls 2 of 9).
The variant A57I E61I gave nd, nd, 2.74 (controls 1 of 9).
The variant S33K A40L A57V gave nd, 4.44, 3.99 (mean 4.22; controls 6 of 9).
The variant V39W A57C S58T gave nd, nd, nd (controls 0 of 9).
The variant W56D A57P S58W gave nd, 3.53, nd (controls 2 of 9).
The variant K24M V29A A57K gave 3.26, 2.69, 2.64 (mean 2.86; controls 2 of 9).
The variant L30D A57S Y97V gave nd, nd, nd (controls 2 of 9).
The variant W56H A57F H98E gave 2.26, 2.33, 2.09 (mean 2.22; controls 2 of 9).
The variant A57N S62G H98I gave 2.26, 4.17, 3.12 (mean 3.18; controls 0 of 9).
The variant S25L S33G A57D gave 0.43, 0.76, 0.64 (mean 0.61; controls 0 of 9).
The variant A57D Q96G gave 1.46, 1.68, 1.54 (mean 1.56; controls 2 of 9).
The variant V39N W56D A57R gave 0.86, 0.87, 0.81 (mean 0.85; controls 1 of 9).
The variant S25W R34F A57H gave 3.35, nd, nd (controls 1 of 9).
The variant S33M K36T A57Y gave nd, nd, nd (controls 0 of 9).
The variant N35V A57E gave 3.83, nd, 4.67 (mean 4.25; controls 0 of 9).
The variant Q27S A40F A57T gave nd, nd, nd (controls 0 of 9).
The variant K24P A57M E61C gave 3.64, nd, nd (controls 1 of 9).
The variant S38D A57D Q95Y gave 4.16, 2.97, nd (mean 3.56; controls 2 of 9).
The variant A57I gave 2.54, nd, 3.41 (mean 2.97; controls 0 of 9).
The variant A40I A57T L102I gave 4.50, nd, nd (controls 2 of 9).
The variant Q27R A57V S58D gave 2.08, 2.16, 2.28 (mean 2.17; controls 2 of 9).
The variant S28F A57H S58V gave nd, nd, nd (controls 0 of 9).
The variant N37I A57S gave nd, 4.15, nd (controls 5 of 9).
The variant L30I A57G S62M gave 0.45, 0.62, 0.64 (mean 0.57; controls 2 of 9).
The variant E32P A57I P101G gave 4.22, 3.60, nd (mean 3.91; controls 1 of 9).
The variant L30K A57P gave nd, nd, nd (controls 0 of 9).
The variant Q27E A57G Q95P gave nd, 3.60, nd (controls 1 of 9).
The variant S25E A57K H98W gave nd, nd, nd (controls 0 of 9).

The last 5 entries again:

{"changes": "L30I A57G S62M", "log10 Kd (nM) by replicate": "0.45, 0.62, 0.64", "mean log10 Kd (nM)": "0.57", "empty controls": "2/9"}
{"changes": "E32P A57I P101G", "log10 Kd (nM) by replicate": "4.22, 3.60, nd", "mean log10 Kd (nM)": "3.91", "empty controls": "1/9"}
{"changes": "L30K A57P", "log10 Kd (nM) by replicate": "nd, nd, nd", "mean log10 Kd (nM)": "nd", "empty controls": "0/9"}
{"changes": "Q27E A57G Q95P", "log10 Kd (nM) by replicate": "nd, 3.60, nd", "mean log10 Kd (nM)": "3.60", "empty controls": "1/9"}
{"changes": "S25E A57K H98W", "log10 Kd (nM) by replicate": "nd, nd, nd", "mean log10 Kd (nM)": "nd", "empty controls": "0/9"}

As a blank, each scFv also met three strains without target: over library AAYL50, 18% of these pairings were detected, typically at 4.19 and seldom below 2.99. For each scFv, signals with the empty controls are counted beside the result. In this assay the parent's reference entry averaged 0.65; its copy inside this library read 1.68.